Key:
A375SM melanoma [1] = assay: Subcutaneous co-injection of A375SM melanoma cells and IFN-β-MSC in nude mice; assay type: in vivo, mouse; settings: sc 5×10^4 IU every other day
A375SM melanoma [2] = assay: Established A375SM melanoma pulmonary metastasis model, survival; assay type: in vivo, mouse; settings: daily subcutaneous injections of 40,000 IU
MDA 231 breast carcinoma = MDA 231 breast carcinoma lung metastasis model in SCID mice; assay type: in vivo, mouse; settings: three iv doses of 10^6 MSC-IFN-β or MSC-Gal; IFN-β 100,000 IU sc every other day
[3] = Serum IFN-β levels after intraperitoneal injection; assay type: in vivo, mouse; settings: intraperitoneal injection of 40,000 IU
OVAR-3 ovarian carcinoma = assay: Intraperitoneal ovarian carcinoma xenograft in SCID mice; assay type: in vivo, mouse; settings: OVAR-3 mice; MSC-IFN-β five weekly ip injections of 5×10^5; IFN-β 40,000 IU ip daily day 15-48
SKOV-3 ovarian carcinoma = assay: as above; assay type: in vivo, mouse; settings: SKOV-3 mice; MSC-IFN-β five weekly ip injections of 5×10^5; IFN-β 40,000 IU ip daily day 15-48
OVAR-3 cells = settings: 5 days, MTS
SKOV-3 cells = settings: 5 days, MTS
Hey cells = settings: 5 days, MTS
K562 = assay: Growth of CML cell lines with Intron A or on IFN-α expressing MSC; assay type: cell-based; settings: 1000 U Intron A, or coculture on induced MSC
BV173 = assay: as above; assay type: cell-based; settings: 1000 U Intron A, or coculture on induced MSC
CML blasts = assay: Growth of circulating CML blasts from patients; assay type: cell-based, human; settings: blasts from 2 CML patients; 1000 U Intron A, or induced MSC
MHC class I expression = assay: MHC class I upregulation in CML patient samples; assay type: cell-based, human; settings: grown with Intron A, or co-cultured on induced MSC feeder layer
KBM5 leukemia = assay: KBM5 xenograft model of CML in SCID mice, survival; assay type: in vivo, mouse; settings: 3 times weekly injections; not statistically significant to controls

Row | Substance | Effect on tumor growth and survival (A375SM melanoma [1]) | Effect on tumor growth and survival (A375SM melanoma [1]; listed as INF-β) | Survival (log rank versus untreated) (A375SM melanoma [2]) | Survival versus untreated controls (MDA 231 breast carcinoma) | Time to return of serum IFN-β to baseline levels [3] | Tumor growth and survival (OVAR-3 ovarian carcinoma) | Tumor growth and survival (SKOV-3 ovarian carcinoma) | IC50, inhibition of proliferation (OVAR-3 cells) | IC50, inhibition of proliferation (SKOV-3 cells) | IC50, inhibition of proliferation (Hey cells) | Growth of K562 cells (K562) | Growth of BV173 cells (BV173) | Growth of CML blasts (CML blasts) | MHC class I expression in patient samples (MHC class I expression) | Extension of mice survival (KBM5 leukemia)
1 | IFN-β: recombinant interferon-beta (Avonex, Biogen, Inc.) | did not have any effect on tumor growth or survival | had no effect | no significant effect on survival | no effect on survival | ≤ 24 h | also had an effect | increased survival slightly as well (p=0.0343) | 5 IU/ml | 100 IU/ml | 1000 IU/ml | – | – | – | – | –
2 | Intron A: pharmacy grade recombinant IFN-α (Intron A, Plough Schering) | – | – | – | – | – | – | – | – | – | – | growth inhibited | growth inhibited | growth inhibited at a similar rate | upregulate Class I | 2-to-5 days

From patent US20040076622A1, “Local production and/or delivery of anti-cancer agents by stromal cell precursors” (Board of Regents, The University of Texas System, priority 2002, published 2004)
